Target: Pyruvate kinase PKM (Homo sapiens, UniProt P14618)
Assay: Activation of PKM2 (unknown origin) at 3 uM incubated for 30 mins relative to control

Amino acid sequences for entries named in this document (tags omitted).
UniProt P14618, whole entry, looked up: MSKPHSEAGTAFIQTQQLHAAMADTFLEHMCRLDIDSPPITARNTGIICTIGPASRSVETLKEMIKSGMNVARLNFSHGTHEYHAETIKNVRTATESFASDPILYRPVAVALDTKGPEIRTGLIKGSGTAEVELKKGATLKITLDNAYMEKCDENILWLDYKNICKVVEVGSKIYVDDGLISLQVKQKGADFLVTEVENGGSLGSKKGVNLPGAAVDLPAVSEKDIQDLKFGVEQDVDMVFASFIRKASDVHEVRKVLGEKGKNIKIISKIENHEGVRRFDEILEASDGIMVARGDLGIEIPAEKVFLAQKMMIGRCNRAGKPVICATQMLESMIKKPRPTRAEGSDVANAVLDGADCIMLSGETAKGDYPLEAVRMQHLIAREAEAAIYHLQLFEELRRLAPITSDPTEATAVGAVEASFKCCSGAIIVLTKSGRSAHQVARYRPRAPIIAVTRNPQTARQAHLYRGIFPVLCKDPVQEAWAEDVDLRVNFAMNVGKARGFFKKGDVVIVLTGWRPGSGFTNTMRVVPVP

Row | fold change (FC) | Compound
1 | > 2 | C=C1C(=O)O[C@@H]2/C=C(\C)CC/C=C(/C(F)F)CC[C@@H]12
2 | > 2 | C=C1C(=O)O[C@@H]2/C=C(\C)CC/C=C(/CF)CC[C@@H]12
3 | > 2 | C=C1C(=O)O[C@@H]2/C=C(\C)CC/C=C(/C(=O)OCC)CC[C@@H]12
4 | > 2 | C=C1C(=O)O[C@@H]2/C=C(\C)CC/C=C(/CO)CC[C@@H]12
5 | > 2 | C=C1C(=O)O[C@@H]2/C=C(\C)CC/C=C(/C(=O)OC)CC[C@@H]12
6 | > 2 | C=C1C(=O)O[C@@H]2/C=C(\C)CC/C=C(\C)CC[C@@H]12 [COSTUNOLIDE]

Continued, molecule first:

Row | Compound | fold change (FC)
7 | C=C1C(=O)O[C@@H]2/C=C(\C)CC/C=C(/COC(=O)[C@@H](NC(=O)[C@@H](N)[C@@H](C)CC)C(C)C)CC[C@@H]12 | > 2
8 | C=C1C(=O)O[C@H]2[C@H]1CC[C@@H](C)CCC[C@@]1(C)O[C@@H]21 | > 2
9 | C=C1C(=O)O[C@@H]2/C=C(\C)CC[C@H]3O[C@@]3(C)CC[C@@H]12 | > 2
10 | C=C1C(=O)O[C@@H]2/C=C(\C)CCC[C@H](C)CC[C@@H]12 | > 2
11 | C=C1C(=O)O[C@@H]2C[C@@H](C)CC[C@H]3O[C@@]3(C)CC[C@@H]12 | > 2
12 | C=C1C(=O)O[C@H]2[C@H]1CC[C@@]1(C)[C@@H](CC[C@@]3(C)O[C@@H]23)C1(F)F | > 2
13 | C=C1C(=O)O[C@@H]2/C=C(\C)CC[C@H]3C(F)(F)[C@@]3(C)CC[C@@H]12 | > 2
14 | C=C1C(=O)O[C@@H]2/C=C(\C)CC/C=C(/COC(=O)[C@@H](N)C(C)C)CC[C@@H]12 | > 2

From ChEMBL document CHEMBL5338738, “Discovery of Novel Sesquiterpene Lactone Derivatives as Potent PKM2 Activators for the Treatment of Ulcerative Colitis” (J Med Chem, 2023)
